Activity calls are given as the source filed them. No cut-off for these calls is given here.
Legend:
[1] = molecular target: Neuronal acetylcholine receptor; alpha4/beta4 (Homo sapiens, UniProt P30926+P43681); experiment: Agonist activity at alpha4beta4 nicotinic receptor in human SH-EP1 cells assessed as induction of radiolabeled Rb+ influx at 0.005 to 100 uM by liquid scintillation counting; type: functional, cell-based
[2] = molecular target: Neuronal acetylcholine receptor; alpha4/beta2 (Homo sapiens, UniProt P17787+P43681); experiment: Agonist activity at alpha4beta2 nicotinic receptor in human SH-EP1 cells assessed as induction of radiolabeled Rb+ influx at 0.005 to 100 uM by liquid scintillation counting; type: functional, cell-based
SH-EP1 = experiment: Selectivity ratio of IC50 for alpha4beta2 nicotinic receptor in human SH-EP1 cells to IC50 for IC50 for human NET; type: cell-based

Amino acid sequences for entries named in this document (tags omitted). A change or cut given only in a name is not applied to a line headed by its entry.
UniProt P30926: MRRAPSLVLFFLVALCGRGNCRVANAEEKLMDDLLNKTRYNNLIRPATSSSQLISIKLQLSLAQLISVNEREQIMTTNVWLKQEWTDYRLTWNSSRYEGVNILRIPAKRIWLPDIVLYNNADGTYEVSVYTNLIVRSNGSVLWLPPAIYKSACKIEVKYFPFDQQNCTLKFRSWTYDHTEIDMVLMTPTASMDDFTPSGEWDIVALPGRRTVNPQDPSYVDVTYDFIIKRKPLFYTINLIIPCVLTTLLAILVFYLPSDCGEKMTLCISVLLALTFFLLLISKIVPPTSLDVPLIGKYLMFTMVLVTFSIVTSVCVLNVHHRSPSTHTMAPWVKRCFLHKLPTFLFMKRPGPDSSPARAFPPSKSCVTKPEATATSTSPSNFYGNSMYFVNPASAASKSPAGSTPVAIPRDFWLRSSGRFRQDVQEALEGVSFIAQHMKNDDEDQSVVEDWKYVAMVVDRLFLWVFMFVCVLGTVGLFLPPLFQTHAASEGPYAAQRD
UniProt P43681: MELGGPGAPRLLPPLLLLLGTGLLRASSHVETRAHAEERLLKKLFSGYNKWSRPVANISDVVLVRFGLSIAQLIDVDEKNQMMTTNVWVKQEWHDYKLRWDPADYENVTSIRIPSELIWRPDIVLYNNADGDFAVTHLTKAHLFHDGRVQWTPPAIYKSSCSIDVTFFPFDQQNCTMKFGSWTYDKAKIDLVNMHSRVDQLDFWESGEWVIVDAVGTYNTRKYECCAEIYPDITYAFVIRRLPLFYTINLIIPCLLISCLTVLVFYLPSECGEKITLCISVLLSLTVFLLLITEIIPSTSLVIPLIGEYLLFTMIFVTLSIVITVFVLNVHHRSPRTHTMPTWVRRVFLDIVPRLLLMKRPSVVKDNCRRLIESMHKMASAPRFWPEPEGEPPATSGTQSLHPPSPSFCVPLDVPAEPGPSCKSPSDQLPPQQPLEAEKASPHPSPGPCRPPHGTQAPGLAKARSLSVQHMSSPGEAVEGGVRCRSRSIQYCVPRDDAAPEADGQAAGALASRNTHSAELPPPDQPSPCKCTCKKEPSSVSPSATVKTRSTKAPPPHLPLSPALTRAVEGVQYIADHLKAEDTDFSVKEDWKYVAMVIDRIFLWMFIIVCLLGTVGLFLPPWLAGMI
UniProt P17787: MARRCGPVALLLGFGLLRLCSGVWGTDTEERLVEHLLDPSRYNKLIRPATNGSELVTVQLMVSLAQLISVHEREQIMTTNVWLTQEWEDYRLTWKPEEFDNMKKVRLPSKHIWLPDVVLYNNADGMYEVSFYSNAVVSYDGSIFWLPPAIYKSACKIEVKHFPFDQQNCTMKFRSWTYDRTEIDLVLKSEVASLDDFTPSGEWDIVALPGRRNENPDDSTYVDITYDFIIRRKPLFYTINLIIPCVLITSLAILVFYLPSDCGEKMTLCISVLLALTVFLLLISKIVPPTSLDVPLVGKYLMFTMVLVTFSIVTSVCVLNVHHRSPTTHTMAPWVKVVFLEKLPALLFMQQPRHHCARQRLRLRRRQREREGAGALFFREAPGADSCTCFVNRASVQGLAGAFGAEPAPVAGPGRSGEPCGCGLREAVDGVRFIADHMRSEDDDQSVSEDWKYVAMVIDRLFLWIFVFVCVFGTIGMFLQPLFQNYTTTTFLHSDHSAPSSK

Structure (SMILES) | Activity [1] | Activity [2] | Ratio IC50 (SH-EP1)
C[C@@H]1NC(C)(C)CO[C@@]1(O)c1ccc(-c2ccccc2)cc1 | inactive | inactive | –
C[C@@H]1NC(C)(C)CO[C@@]1(O)c1ccccc1 | inactive | inactive | 12

— ChEMBL document CHEMBL1177712, “Synthesis and characterization of in vitro and in vivo profiles of hydroxybupropion analogues: aids to smoking cessation” (J Med Chem, 2010)
